These results are taken from patent publication US8008312B2, “CXCR4 antagonists for the treatment of HIV infection” (Emory University, priority 2005, dated 2011).

Amino acid sequences for entries named in this document (tags omitted).
UniProt P61073, whole entry: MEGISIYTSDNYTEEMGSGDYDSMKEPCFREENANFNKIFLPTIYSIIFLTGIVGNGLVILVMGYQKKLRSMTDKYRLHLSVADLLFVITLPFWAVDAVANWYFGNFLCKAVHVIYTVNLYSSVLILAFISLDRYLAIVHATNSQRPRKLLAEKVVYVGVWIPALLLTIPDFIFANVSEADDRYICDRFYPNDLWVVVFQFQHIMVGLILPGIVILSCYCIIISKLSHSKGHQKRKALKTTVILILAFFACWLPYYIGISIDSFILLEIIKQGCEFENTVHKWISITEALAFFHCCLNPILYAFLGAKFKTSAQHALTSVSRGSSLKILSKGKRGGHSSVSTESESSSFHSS

This assay deals with CXCR4 (Homo sapiens, UniProt P61073). The assay is described as follows: Competition screening using the native CXCR4 ligand SDF-1. The assay is classed as binding. The note with it: competition with SDF-1.

For orientation: IC50 means the midpoint of a concentration-inhibition curve. A high value points to a need for much substance.

SMILES strings stand for the structures.

For the compound `c1ccc(NCc2cccc(CNc3ccccn3)c2)nc1` [drawing 207], the IC50 was less than 10 nM.
